Source: ChEMBL document CHEMBL1152448, “Discovery of a novel class of phosphodiesterase 10A inhibitors and identification of clinical candidate 2-[4-(1-methyl-4-pyridin-4-yl-1H-pyrazol-3-yl)-phenoxymethyl]-quinoline (PF-2545920) for the treatment of schizophrenia” (J Med Chem, 2009)

Target: T1, cAMP and cAMP-inhibited cGMP 3',5'-cyclic phosphodiesterase 10A (Rattus norvegicus, UniProt Q9QYJ6)
T1 sequence (Q9QYJ6 whole entry): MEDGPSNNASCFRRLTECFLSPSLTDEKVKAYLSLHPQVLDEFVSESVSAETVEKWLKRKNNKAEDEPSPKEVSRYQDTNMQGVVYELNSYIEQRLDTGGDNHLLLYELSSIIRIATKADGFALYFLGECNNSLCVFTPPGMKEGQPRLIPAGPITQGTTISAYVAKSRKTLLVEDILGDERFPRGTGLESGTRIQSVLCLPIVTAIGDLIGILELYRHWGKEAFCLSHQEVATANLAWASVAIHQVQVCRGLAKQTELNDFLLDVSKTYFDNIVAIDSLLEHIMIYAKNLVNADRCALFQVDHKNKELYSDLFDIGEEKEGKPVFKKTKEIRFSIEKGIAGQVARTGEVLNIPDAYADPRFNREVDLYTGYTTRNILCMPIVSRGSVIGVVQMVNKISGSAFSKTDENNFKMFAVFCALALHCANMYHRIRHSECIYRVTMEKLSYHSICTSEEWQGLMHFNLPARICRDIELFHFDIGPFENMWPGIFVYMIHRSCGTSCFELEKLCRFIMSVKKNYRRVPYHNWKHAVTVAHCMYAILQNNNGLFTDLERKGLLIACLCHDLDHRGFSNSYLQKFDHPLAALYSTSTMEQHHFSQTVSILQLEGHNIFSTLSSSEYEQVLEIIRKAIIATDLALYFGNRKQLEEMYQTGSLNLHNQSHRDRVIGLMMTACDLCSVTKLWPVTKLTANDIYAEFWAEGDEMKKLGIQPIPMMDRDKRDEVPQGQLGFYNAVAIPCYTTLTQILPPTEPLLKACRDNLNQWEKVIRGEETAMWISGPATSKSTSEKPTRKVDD
Assay: Inhibition of rat recombinant PDE10A transfected in Sf9 cells

- IC50: 0.423 nM
SMILES: c1ccc2nc(COc3ccc(-c4n[nH]cc4-c4ccncc4)cc3)ccc2c1
